These results are taken from patent publication US20220389394A1 (Gilead, published 2022).

Sequences of proteins named here, by UniProt entry; tags and fusion partners are left off. Residues count along the entry.
UniProt P55899, 24-297 limits assumed, chain 1 of 2: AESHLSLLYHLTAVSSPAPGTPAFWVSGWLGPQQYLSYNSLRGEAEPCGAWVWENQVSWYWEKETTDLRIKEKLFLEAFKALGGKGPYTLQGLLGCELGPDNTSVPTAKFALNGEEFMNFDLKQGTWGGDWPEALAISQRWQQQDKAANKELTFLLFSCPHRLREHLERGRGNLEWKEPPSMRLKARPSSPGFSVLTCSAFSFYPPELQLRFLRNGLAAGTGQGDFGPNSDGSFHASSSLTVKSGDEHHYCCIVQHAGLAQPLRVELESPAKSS

For assay [1], the target named is T1, recombinant human C1q protein (Fitzgerald) (human).
T1 construct: also called human recombinant complement protein, C1q
Put plainly: ELISA, test article immobilized, C1q added; text: devoid of C1q binding ability. On the technique in general: An ELISA detects its analyte on a solid surface through an enzyme-linked reagent.

The target of a further assay is T2, recombinant human FcRn (human, UniProt P55899, in part; P61769, in part).
T2 construct: a beta-2-microglobulin chain is not mentioned; also called human recombinant FcRn
Put plainly: ELISA; recombinant human FcRn coated, serially diluted test article, anti-human (H+L)-HRP, 4PL fit; estimate, no saturating signal. As for the experimental part: Graph is a result of one experiment. Experiment was performed in duplicate. Error bars represent standard deviation of the mean values.
Signal was developed using TMB substrate then quenched prior to reading absorbance at 450-650 nm on a SpectraMax plate reader.

Usually EC50 stands for the concentration needed to bring the measured effect to its halfway point.

B1: human FLT3-ligand human IgG4 (S228P/L235E) fusion protein (SEQ ID NO:3) (Fc fusion)
chain: TQDCSFQHSPISSDFAVKIRELSDYLLQDYPVTVASNLQDEELCGGLWRLVLAQRWMERLKTVAGSKMQGLLERVNTEIHFVTKCAFQPPPSCLRFVQTNISRLLQETSEQLVALKPWITRQNFSRCLELQCQPDSSTLPPPWSPRPLEATAPTAPQESKYGPPCPPCPAPEFEGGPSVFLFPPKPKDTLMISRTPEVTCVVVDVSQEDPEVQFNWYVDGVEVHNAKTKPREEQFNSTYRVVSVLTVLHQDWLNGKEYKCKVSNKGLPSSIEKTISKAKGQPREPQVYTLPPSQEEMTKNQVSLTCLVKGFYPSDIAVEWESNGQPENNYKTTPPVLDSDGSFFLYSRLTVDKSRWQEGNVFSCSVMHEALHNHYTQKSLSLSLGK
notes: also called FLT3L ECD - hG4 S228P/L235E
As for B1, the binding result in assay [1] is “no binding (tested: 94 nM (highest of the titration))”. For the same molecule, in the assay with recombinant human FcRn, the concentration giving a half-maximal response (EC50) is about 183 nM.
